From PubChem BioAssay AID624170 (National Center for Advancing Translational Sciences (NCATS), 2012)
Only a part is listed here, and it is no random draw. Records with an inconclusive call do not appear. Activity calls are given as the source filed them. Calls follow the shape of the dose curve; as a rule, active = well fitted inhibition curve with a large enough effect; inconclusive = small, poorly fitted or top-dose-only effect, or another doubt; inactive = no such curve, though single readings can be large or run the other way.

Chains of the proteins cited; added tags and fusions are not shown. Lines headed by an entry give the natural chain unless they say otherwise; changes in a name come on top.
UniProt O94925: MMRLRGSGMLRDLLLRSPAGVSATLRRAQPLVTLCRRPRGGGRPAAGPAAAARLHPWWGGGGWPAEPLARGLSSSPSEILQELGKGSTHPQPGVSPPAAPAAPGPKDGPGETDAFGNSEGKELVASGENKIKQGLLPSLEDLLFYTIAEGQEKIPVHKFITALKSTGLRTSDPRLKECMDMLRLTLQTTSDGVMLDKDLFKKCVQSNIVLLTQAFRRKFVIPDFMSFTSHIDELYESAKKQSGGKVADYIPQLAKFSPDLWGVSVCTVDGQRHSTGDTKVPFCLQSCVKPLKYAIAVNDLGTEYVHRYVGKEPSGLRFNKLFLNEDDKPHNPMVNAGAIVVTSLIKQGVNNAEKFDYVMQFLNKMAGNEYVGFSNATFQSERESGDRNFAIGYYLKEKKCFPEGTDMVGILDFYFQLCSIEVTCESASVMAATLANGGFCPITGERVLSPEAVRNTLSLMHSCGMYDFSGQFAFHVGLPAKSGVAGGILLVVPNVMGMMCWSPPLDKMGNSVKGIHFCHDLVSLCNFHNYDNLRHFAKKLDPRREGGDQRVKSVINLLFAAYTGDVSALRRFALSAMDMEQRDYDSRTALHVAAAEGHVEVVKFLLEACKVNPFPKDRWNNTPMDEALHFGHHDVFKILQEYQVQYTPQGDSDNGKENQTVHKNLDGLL

Target: Glutaminase kidney isoform, mitochondrial (Homo sapiens) (UniProt O94925)
Assay: qHTS for Inhibitors of Glutaminase (GLS)
Conditions: GLS enzymatic activity, qHTS titration; series mostly up to 45.5 µM; activity change, negative = inhibition: at the top concentration
% is scaled to controls: 0 for no effect and ±100 for the full control effect; potency is read from the fitted curve at half-maximal effect.

Structure (SMILES)	activity change, negative = inhibition	Potency
Cc1cccc(OCC(=O)OC2CN3CCC2CC3)c1 (centres undefined)	inactive: 4%	
O=[As](O)(c1cccc(O)c1)c1cccc(O)c1	inactive: 0.79%	
CS(=O)(=O)c1ccc(Cl)c(NC(=O)COC(=O)C(O)(c2ccccc2)c2ccccc2)c1	inactive: 2.23%	
O=[As](O)(O)c1cccnc1	inactive: -2.55%	
COc1cc(C(=O)NCC2(N3CCOCC3)CCCCC2)cc(Cl)c1OC(C)C	inactive: 5.65%	
CN(C(=O)Cc1ccc(Cl)c(Cl)c1)[C@@H]1CC[C@]2(CCCO2)C[C@H]1N1CCCC1	inactive: -0.311%	
O=C(OC1CN2CCC1CC2)c1ccc(Cl)cc1 (centres undefined)	inactive: 11.4%	
CCOP(=O)(Nc1cccc2ccccc12)OCC	inactive: 12.2%	
COc1cc(C2NCCC3(OCCO3)C2(C)C)cc(OC)c1OC (centres undefined)	inactive: 1.18%	
CCCOP(=S)(Nc1nc(N)cc(=O)[nH]1)OCCC	inactive: -0.168%	
Cc1ccc(NCCc2c([N+](=O)[O-])cc([N+](=O)[O-])cc2[N+](=O)[O-])cc1	inactive: -3.35%	
Nc1cccc2c([As](=O)(O)O)cccc12	inactive: -0.722%	
O=C(O)COc1ccc([As](=O)(O)O)cc1[N+](=O)[O-]	inactive: 10.2%	
Nc1ccccc1[As](=O)(O)c1ccccc1	inactive: -0.0767%	
O=P(Nc1nccs1)(Oc1ccccc1)Oc1ccccc1	inactive: 0.817%	
O=P(Nc1nccs1)(c1ccccc1)c1nc2ccccc2s1 (centres undefined)	inactive: -15.7%	
CCOP1(=S)c2c(C)nn(CCC#N)c2N=C(c2ccccc2F)N1C (centres undefined)	inactive: -0.94%	
CN(C(=O)Cc1ccc(Cl)c(Cl)c1)[C@H]1CC[C@@]2(CCCO2)C[C@@H]1N1CCCC1	inactive: 9%	
O=[N+]([O-])c1ccc2c(c1)nnn2O	inactive: 2.65%	
CN(C)C(=O)c1cc([N+](=O)[O-])cc2c1-c1c(cc([N+](=O)[O-])cc1[N+](=O)[O-])C2=O	inactive: -12.9%	
CCOP1(=S)c2c(C)nn(CCC#N)c2N=C(c2ccc(F)cc2)N1C (centres undefined)	inactive: 17.6%	
CN(C(=O)Cc1ccccc1)[C@@H]1CC[C@]2(CCCO2)C[C@H]1N1CCCC1	inactive: 20.2%	
N#CCCN(C(=O)COC(=O)C(O)(c1ccccc1)c1ccccc1)c1ccc(F)cc1	inactive: 9.48%	
NC(=O)Nc1ccc([As](=O)(O)O)cc1		inactive

Structure (SMILES)	activity change, negative = inhibition	Potency
CCCC1OP(=O)(Nc2ccccc2)OCC1CC (centres undefined)	inactive: -0.0885%	
O=C(/C=C/c1ccccc1)OC1CN2CCC1CC2 (centres undefined)	inactive: 3.68%	
CN(C)C1(CNC(=O)c2ccc(S(C)(=O)=O)cc2)CCCCC1	inactive: 9.34%	
Cc1ccc(C(=O)OC2CN3CCC2CC3)cc1 (centres undefined)	inactive: 0.284%	
CC1CCC(C(C)C)C(OP(=O)(Nc2ccccn2)c2ccccc2)C1 (centres undefined)	inactive: 0.598%	
Cc1nn(-c2ccccc2)c2c1P(=O)(N1CCOCC1)N(C)C(c1ccccc1)=N2 (centres undefined)	inactive: -2.31%	
Cc1ccc(OCC(=O)OC2CN3CCC2CC3)cc1 (centres undefined)	inactive: 1.43%	
O=[As](O)(c1cccs1)c1cccs1	inactive: -5.9%	
NS(=O)(=O)c1cccc(NC(=O)COC(=O)C(O)(c2ccccc2)c2ccccc2)c1	inactive: -1.64%	
O=P1(Nc2ccc(Br)cn2)COc2ccccc2OC1	inactive: 0.0529%	
Nc1cccc([As](=O)(O)c2ccccc2)c1	inactive: 0.881%	
O=P1(Nc2ncccn2)COc2ccccc2OC1	inactive: -1.12%	
CC(C)(C)C(=O)NC(Sc1ncccn1)C(Cl)(Cl)Cl (centres undefined)	inactive: 5.56%	
O=P1(N(CCCl)CCCl)NCCC(C(F)(F)F)O1 (centres undefined)	inactive: -9.02%	
CCOP(=O)(Nc1ccc(C)cn1)OCC	inactive: 1.47%	
CN(CCCl)Cc1cc(Cl)c(NC2=NCCN2)c(Cl)c1	inactive: 4.58%	
CCOP(=O)(NC(=NC(C)c1ccccc1)NC(C)c1ccccc1)OCC (centres undefined)	inactive: 0.552%	
CCC1=CC2Cc3nc4ccc(Cl)cc4c(N)c3C(C1)C2 (centres undefined)	inactive: -8.98%	
O=P1(Nc2ccccn2)COc2ccccc2OC1	inactive: 0.947%	
CC1(CBr)Cn2c(nc3ccccc3c2=O)S1 (centres undefined)	inactive: -0.432%	
CN(C(=O)Cc1ccc(Cl)c(Cl)c1)[C@@H]1CCCC[C@H]1N1CCCC1	inactive: 16.5%	
CC(C)/C=N\N=C(\N)N[N+](=O)[O-]	inactive: 2.55%	
COc1ccccc1CNC(=O)COC(=O)C(O)(c1ccccc1)c1ccccc1	inactive: 0.56%	
O=C(Nc1ccncc1[N+](=O)[O-])c1ccc([N+](=O)[O-])cc1[N+](=O)[O-]	inactive: 1.11%	

Structure (SMILES)	activity change, negative = inhibition	Potency
O=C(COc1ccccc1)OC1CN2CCC1CC2 (centres undefined)	inactive: -3.39%	
O=C(O)C(=O)c1ccc(N(CCCl)CCCl)cc1	inactive: -4.38%	
COC(=O)C1(C)COP(=O)(N2CCCC2)OC1 (centres undefined)	inactive: -21.2%	
COP1(=S)c2c(C)nn(CCC#N)c2N=C(c2ccc(F)cc2)N1C (centres undefined)	inactive: -4.28%	
CCC(C)N(CC(C)C)C(=S)SC(NC(C)=O)C(Cl)(Cl)Cl (centres undefined)	inactive: 6.67%	
CCOC(=O)c1ccc(NC(=O)C(C)(CCl)SC)cc1 (centres undefined)	inactive: 0%	
CSc1ccc(Nc2c([N+](=O)[O-])cc([N+](=O)[O-])cc2[N+](=O)[O-])cc1	inactive: 6.23%	
O=C(OC1CN2CCC1CC2)c1cccc([N+](=O)[O-])c1 (centres undefined)	inactive: 2.17%	
Cc1cc(SC(NC(=O)c2ccccc2)C(Cl)(Cl)Cl)nc(C(C)C)n1 (centres undefined)	inactive: -1.76%	
CCCCOc1ccc(C(=O)NCC2(N3CCCCC3)CCCCC2)cc1OC	inactive: 0.492%	
COP(=O)(OC)N1CC1c1ccccc1 (centres undefined)	inactive: -1.81%	
CC1CCNP(=O)(N(CCCl)CCCl)O1 (centres undefined)	inactive: -8.39%	
O=C(O)C(O)c1ccc(N(CCCl)CCCl)cc1 (centres undefined)	inactive: 9.78%	
CCOC(=O)Nc1ccc([As](=O)(O)O)c(O)c1	inactive: -3.66%	
O=[N+]([O-])c1ccc(Nc2ccc(Oc3ccc([N+](=O)[O-])cc3[N+](=O)[O-])cc2)c([N+](=O)[O-])c1	inactive: -2.79%	
Cc1cc(SC(NC=O)C(Cl)(Cl)Cl)ncn1 (centres undefined)	inactive: 9.02%	
O=P(Nc1ccccn1)(c1cccc2ccccc12)c1cccc2ccccc12	inactive: -3.52%	
CCOC(=O)Nc1cccc([As](=O)(O)O)c1	inactive: 6.66%	
Cc1ccc2nc3c(c(C)c2c1)CC(C(Cl)Cl)S3 (centres undefined)	inactive: -1.69%	
Cc1ccc(OP(=O)(Nc2ccc([N+](=O)[O-])cn2)Oc2ccc(C)cc2)cc1	inactive: 5.85%	
[N-]=[N+]=NC1CCCCC1NC(=O)c1cc([N+](=O)[O-])cc([N+](=O)[O-])c1 (centres undefined)	inactive: 3.3%	
O=[N+]([O-])c1ccc(-c2cc([N+](=O)[O-])c(O)c([N+](=O)[O-])c2)cc1		active: 17.8 µM
COc1cc(C(=O)NCC2(N3CCOCC3)CCCCC2)ccc1OCC(C)C	inactive: 15.2%	
O=[As](O)(c1ccc(O)cc1)c1ccccc1O	inactive: -0.379%	

Structure (SMILES)	activity change, negative = inhibition	Potency
C[As](=O)(O)c1cccc(C(=O)O)c1	inactive: -3.62%	
O=[N+]([O-])c1cc([N+](=O)[O-])c(-c2ccn[nH]2)s1	inactive: 6.07%	
CC(C)NC(=O)NP(=O)(Oc1ccccc1)Oc1ccccc1	inactive: 6.1%	
CCN(CC)C(=S)SC(NC=O)C(Cl)(Cl)Cl (centres undefined)	inactive: -0.0445%	
O=C(OC1CN2CCC1CC2)c1cccc2[nH]cnc12 (centres undefined)	inactive: 5.87%	
COC(=O)C1(C)COP(=O)(N2CCCCCC2)OC1 (centres undefined)	inactive: -2.08%	
CC(C)c1ccc(OP(=O)(Nc2ccccn2)Oc2ccccc2F)cc1 (centres undefined)	inactive: 1.34%	
ClCCSc1nnc(-c2cccnc2)o1	inactive: -8.36%	
COc1cc(I)ccc1[As](=O)(O)O	inactive: 6.22%	
COc1ccc2nc(NP(=O)(c3ccccc3)c3ccccc3)sc2c1	inactive: 4.25%	
O=P1(N(CCCl)CCCl)Nc2ccccc2N1	inactive: 10.5%	
O=P1(N(CCCl)CCCl)OCCCN1CCCl (centres undefined)	inactive: -1.65%	
Cc1cc(=O)[nH]c(N[N+](=O)[O-])n1	inactive: 8.06%	
O=C(OC1CN2CCC1CC2)C12CC3CC(CC(C3)C1)C2 (centres undefined)	inactive: 2.71%	
Cc1c2c(nc3ccccc13)SC(C(Cl)Cl)C2 (centres undefined)	inactive: -4.19%	
COc1ccc(N/C(=N/P(=O)(N2CCOCC2)N2CCOCC2)N2CCOCC2)cc1	inactive: -24.5%	
O=[N+]([O-])c1cc(Oc2ccc([N+](=O)[O-])cc2C(F)(F)F)cc([N+](=O)[O-])c1	inactive: 7.67%	
Cc1ccc(OP(=O)(Nc2nccs2)Oc2ccc(C)cc2)cc1	inactive: -0.427%	
COc1ccccc1OP(=O)(Nc1ccc(C)cn1)Oc1ccccc1OC	inactive: -2.62%	
CN1CCCC(OC(=O)C(c2ccccc2)c2ccccc2)C1 (centres undefined)	inactive: -12.7%	
Clc1ccc(Cl)c(NC2=NCC(CBr)S2)c1 (centres undefined)	inactive: 0%	
NC(=O)c1cc([N+](=O)[O-])cc([N+](=O)[O-])c1N	inactive: 0.341%	
Cc1ccc(N/C(=N/P(=O)(N2CCOCC2)N2CCOCC2)N2CCOCC2)cc1	inactive: 1.48%	
CN(C(=O)Cc1ccc(Cl)c(Cl)c1)[C@H]1CCCC[C@H]1N1CCCC1	inactive: 18.1%	

Structure (SMILES)	activity change, negative = inhibition	Potency
O=[N+]([O-])C1C(O)C(O)C([N+](=O)[O-])C(O)C1O (centres undefined)	inactive: -30.5%	
Nc1cc(N)c2nonc2c1[N+](=O)[O-]	inactive: 4.52%	
CC(C)CC(=O)NC(Sc1ccc(Cl)cc1)C(Cl)(Cl)Cl (centres undefined)	inactive: 2.63%	
O=C(NC(Sc1ccncn1)C(Cl)(Cl)Cl)c1ccccc1 (centres undefined)	inactive: -2.91%	
Oc1ccccc1CNc1ccccn1	inactive: 41.4%	
CN(C(=O)Cc1ccc(Cl)c(Cl)c1)[C@H]1CCCC[C@@H]1N1CCCC1	inactive: 22.3%	
Cc1ccc(NP(=O)(Oc2ccccc2F)Oc2ccccc2F)nc1	inactive: 0%	
Cc1cc(SC(NC(=O)c2ccc(F)cc2)C(Cl)(Cl)Cl)ncn1 (centres undefined)	inactive: 5.15%	
CCOP(=O)(Nc1ccccc1)OCC	inactive: -4.66%	
CCCC1OP(N)(=O)OCC1CC (centres undefined)	inactive: 1.46%	
CC(=O)Nc1ccc([As](=O)(O)O)cc1	inactive: 6.96%	
O=C(O)c1ccccc1[As](=O)(O)O	inactive: 5.43%	
O=P(Nc1nc2ccc(Cl)cc2s1)(c1ccccc1)c1ccccc1	inactive: -2.37%	
CN(C)P(=O)(N(C)C)n1c(Nc2ccccc2)nnc1-c1ccccc1	inactive: -0.163%	
CCN(N=Nc1nonc1N)c1nonc1N	inactive: 9.47%	
Nc1cccc2ccc([As](=O)(O)O)cc12	inactive: 3.99%	
O=C(Nc1cc([As](=O)(O)O)ccc1O)c1ccccc1	inactive: 1.44%	
O=P1(N(CCCl)CCCl)OCCCS1 (centres undefined)	inactive: -3.91%	
COC(=O)C1(C)COP(=O)(Nc2ccccc2)OC1 (centres undefined)	inactive: 2.33%	
O=[N+]([O-])c1cccc(NC2=NCC(CBr)S2)c1 (centres undefined)	inactive: -4.67%	
O=C(O)CNc1ccc([As](=O)(O)O)cc1	inactive: 25%	
CC(C)(C)C(=O)NC(Sc1ccncn1)C(Cl)(Cl)Cl (centres undefined)	inactive: 18.9%	
O=[N+]([O-])c1ncn(CCn2ncnc2[N+](=O)[O-])n1	inactive: 0.518%	
